The numbers were not newly measured in US5071857A, “2,6-dioxopiperidine derivatives, their preparation and pharmaceutical compositions containing them” (National Research Development Corporation, priority 1983, dated 1991), which cites them from elsewhere.

The subject of the series is aromatase. To be noted: background; cited from earlier work.

In the case of `CCC1(c2ccc(N)cc2)CCC(=O)NC1=O` (stereo not shown) [aminoglutethimide, reference compound], the “inhibition in vivo of aromatase in peripheral tissue” value was “ability to inhibit in vivo the activity of the enzyme aromatase in peripheral tissue”.
